According to ChEMBL document CHEMBL1132638, “New (sulfonyloxy)piperazinyldibenzazepines as potential atypical antipsychotics: chemistry and pharmacological evaluation” (J Med Chem, 1999):
pIC50: −log10 of the molar value.

Protein sequences, listed by entry. Tags and fused reporters are not part of them.
UniProt P14842, whole entry: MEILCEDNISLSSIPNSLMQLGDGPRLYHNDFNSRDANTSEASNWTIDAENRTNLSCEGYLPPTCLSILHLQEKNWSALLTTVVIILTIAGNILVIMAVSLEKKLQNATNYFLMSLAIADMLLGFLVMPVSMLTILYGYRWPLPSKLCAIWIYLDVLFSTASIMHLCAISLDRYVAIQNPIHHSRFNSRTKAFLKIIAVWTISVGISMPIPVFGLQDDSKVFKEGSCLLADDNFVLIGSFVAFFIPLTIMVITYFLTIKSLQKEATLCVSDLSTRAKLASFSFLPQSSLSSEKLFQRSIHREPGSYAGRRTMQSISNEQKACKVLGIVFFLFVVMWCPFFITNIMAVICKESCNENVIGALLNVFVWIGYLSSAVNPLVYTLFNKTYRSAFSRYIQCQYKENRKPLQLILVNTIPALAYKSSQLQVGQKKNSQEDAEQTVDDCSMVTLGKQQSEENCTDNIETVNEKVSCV

Biological target: 5-hydroxytryptamine receptor 2A (Rattus norvegicus, UniProt P14842)
Test: biochemical

SMILES: CN1CCN(C2=Nc3ccccc3Oc3ccc(Cl)cc32)CC1 [LOXAPINE]
- pIC50: 8.22
